# PubChem BioAssay AID651580 (Sanford-Burnham Center for Chemical Genomics, 2012)
# This is a selection; strong and weak results do not stand in their true shares. Calls of active or inactive are those of the source.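 The calls were made as follows: active = mean inhibition across four replicates of at least 40 percent at the single tested concentration; inactive = the rest.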
# Assay: HIF-2a driven luciferase blockers, single dose – luminescence, 786-0 RCC cells, confirmation (AID 651580)
# Details: HIF-2a luciferase reporter luminescence, overnight, at 18.8 µM, stronger effect = higher value
row,SMILES,inhibition
1,CCCCCCCCCCCCCCCC1C[N+](C)(C)CCOP(C)(=O)O1 (stereo unspecified),inactive: 33.3%
